The assay addresses catechol-O-methyltransferase (COMT) (Homo sapiens, UniProt P21964). Kind of assay: COMT inhibition assay (HTRF, production of SAH from SAM). To be noted: recombinant human COMT, table does not say whether MB-COMT or S-COMT. The method, then:
The ability of compounds to inhibit the activity of catechol-O-methyltransferase (COMT) was determined by a homogenous time-resolved fluorescent (HTRF) assay (Lina et al, 2012; kit from CisBio, Codolet, France). This assay measures the production of S-adenosyl homocysteine (SAH) from the methyl donor S-adenosyl methionine. Recombinant human membrane bound COMT (MB-COMT; M51A variant) was expressed in HEK 293F cells using 293Fectin (Life Technologies, Gent, Belgium) and membranes prepared. The membranes were re-suspended in buffer (20 mM Tris/HCl pH 7; 10 mM glycerol; 2 mM MgCl2; 10 mM NaCl), aliquoted and stored at −80° C. […]
For the human MB-COMT assay, membranes (62 ng/well) were incubated with SAM (20 μM final, CisBio) and dopamine (1.5 μM final; Sigma H8502, Diegem, Belgium) in the presence or absence of varying concentrations (typically 10 concentrations ranging from 10 μM to 0.1 nM) of compound for 40 min at 37° C. in 384-well microtitre plates (10 μl per well final volume). The reaction was terminated by the addition of acylation buffer and the amount of SAH produced determined according to manufacturer's instructions. […]
The human S-COMT assay was performed as above except that 0.15 ng enzyme/well was incubated with SAM (20 μM final) and dopamine (100 μM final) for 15 min at 37° C. and SAH production determined. […]
Background: Time-resolved FRET reads energy transfer from a long-lived donor to a nearby acceptor.

Protein sequences, listed by entry. Tags and fused reporters are not part of them. Residues count along the entry.
UniProt P21964, 52-271 limits assumed: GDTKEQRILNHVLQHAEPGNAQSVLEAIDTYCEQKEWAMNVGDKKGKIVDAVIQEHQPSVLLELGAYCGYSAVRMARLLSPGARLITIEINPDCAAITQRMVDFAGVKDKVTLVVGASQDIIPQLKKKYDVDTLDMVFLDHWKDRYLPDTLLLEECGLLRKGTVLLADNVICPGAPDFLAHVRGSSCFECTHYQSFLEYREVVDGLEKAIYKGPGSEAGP

Consider `O=S(=O)(CCCC1CC1)c1ccc(O)c2ncccc12`, for which the “Activity range (pIC50)” value is given as “+++ (three plus signs (+++) is associated with a pIC50 of above about 7)”.

These data come from US9951057B2, “COMT inhibiting methods and compositions” (Lieber Institute for Brain Development, priority 2015, dated 2018).
